Experimental data published in ChEMBL document CHEMBL2417470, “NMR determination of Electrophorus electricus acetylcholinesterase inhibition and reactivation by neutral oximes” (2013).

Assay: Solubility of the compound in water
Details: buffer

SMILES	solubility
O/N=C/c1ccccc1	soluble
O/N=C/c1ccc(F)cc1	soluble
O/N=C/c1ccc(Cl)cc1	soluble
O/N=C/c1cccs1	soluble
COc1ccc(/C=N/O)cc1	soluble
O=[N+]([O-])c1ccc(/C=N/O)cc1	soluble
C[n+]1ccccc1/C=N/O.[I-]	soluble
